A word on the IC50: it is the concentration that gives 50% inhibition.

By UniProt entry, the sequences of proteins in these tests, tags left out. Where a name states a change or a piece, a line headed by the entry shows the natural chain unless it says otherwise.
UniProt O00329: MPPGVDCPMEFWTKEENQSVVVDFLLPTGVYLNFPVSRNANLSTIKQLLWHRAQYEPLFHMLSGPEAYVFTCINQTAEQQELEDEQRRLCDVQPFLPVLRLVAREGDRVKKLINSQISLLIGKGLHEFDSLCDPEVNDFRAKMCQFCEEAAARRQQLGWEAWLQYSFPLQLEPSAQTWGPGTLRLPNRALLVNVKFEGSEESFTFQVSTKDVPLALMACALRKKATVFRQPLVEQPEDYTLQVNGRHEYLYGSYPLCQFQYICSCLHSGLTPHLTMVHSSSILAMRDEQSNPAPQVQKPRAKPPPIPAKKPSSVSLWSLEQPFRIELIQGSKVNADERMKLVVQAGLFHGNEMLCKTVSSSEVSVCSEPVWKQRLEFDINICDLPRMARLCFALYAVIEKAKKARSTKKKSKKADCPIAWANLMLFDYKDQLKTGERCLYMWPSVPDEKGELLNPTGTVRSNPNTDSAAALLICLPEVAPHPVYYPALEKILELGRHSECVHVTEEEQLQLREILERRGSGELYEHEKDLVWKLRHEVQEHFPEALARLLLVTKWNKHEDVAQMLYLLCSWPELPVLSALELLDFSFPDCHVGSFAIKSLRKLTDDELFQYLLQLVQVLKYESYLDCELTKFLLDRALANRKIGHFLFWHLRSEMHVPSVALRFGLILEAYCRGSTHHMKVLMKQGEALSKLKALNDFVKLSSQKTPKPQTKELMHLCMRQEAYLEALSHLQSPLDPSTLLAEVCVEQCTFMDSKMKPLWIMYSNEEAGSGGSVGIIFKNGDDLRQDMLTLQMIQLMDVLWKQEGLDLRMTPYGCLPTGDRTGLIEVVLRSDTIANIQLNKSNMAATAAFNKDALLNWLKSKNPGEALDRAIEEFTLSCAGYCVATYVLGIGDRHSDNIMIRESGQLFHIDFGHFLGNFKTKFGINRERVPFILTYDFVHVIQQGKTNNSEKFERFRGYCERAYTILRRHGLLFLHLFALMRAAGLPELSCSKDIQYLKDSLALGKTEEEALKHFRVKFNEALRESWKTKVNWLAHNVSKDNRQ

Structures are written as SMILES. Counter-ions that a name gives are not always drawn.

The target of this assay is PI3Kδ (p110δ/p85α) (Homo sapiens (Human), UniProt O00329). Nature of the assay: PI3Kδ Scintillation Proximity Assay (Example A3). The class given is biochemical. Conditions: 20 μM ATP, 20 μM PIP2, 4 nM PI3Kδ, read-out: PI3Kδ SPA IC50. The source says: [γ-^33P]ATP (10 mCi/mL) was purchased from PerkinElmer (Waltham, Mass.). Lipid kinase substrate, D-myo-Phosphatidylinositol 4,5-bisphosphate (PtdIns(4,5)P2)D (+)-sn-1,2-di-O-octanoylglyceryl, 3-O-phospho linked (PIP2), CAS 204858-53-7, was purchased from Echelon Biosciences (Salt Lake City, Utah). PI3Kδ (p110δ/p85α) was purchased from Millipore (Bedford, Mass.). ATP, MgCl2, DTT, EDTA, MOPS and CHAPS were purchased from Sigma-Aldrich (St. Louis, Mo.). Wheat Germ Agglutinin (WGA) YSi SPA Scintillation Beads was purchased from GE healthcare life sciences (Piscataway, N.J.).
The kinase reaction was conducted in polystyrene 384-well matrix white plate from Thermo Fisher Scientific in a final volume of 25 μL. Inhibitors were first diluted serially in DMSO and added to the plate wells before the addition of other reaction components. The final concentration of DMSO in the assay was 0.5%. The PI3K assays were carried out at room temperature in 20 mM MOPS, pH 6.7, 10 mM MgCl2, 5 mM DTT and CHAPS 0.03%. […] After the plate sealing, plates were shaken overnight at room temperature and centrifuged at 1800 rpm for 10 minutes, the radioactivity of the product was determined by scintillation counting on Topcount (PerkinElmer). […] IC50 data for the Examples is presented in Table 2 as determined by Assay A3. IC50 data for Examples 361 and 363 is shown in Table 3 as determined by Assay A2.
Background: SPA uses beads or plates that emit light when radiolabelled molecules are held near them.

Consider `COc1c(C(C)n2nc(C)c3c(N)ncnc32)cc(Cl)c(C)c1C1CC(O)C1` (centres unmarked) [Example 166, 3-{3-[1-(4-Amino-3-methyl-1H-pyrazolo[3,4-d]pyrimidin-1-yl)ethyl]-5-chloro-2-methoxy-6-methylphenyl}cyclobutanol trifluoroacetate], for which the IC50 was less than 10 nM.

Turning to `COc1c(C(C)n2nc(C)c3c(N)ncnc32)cc(Cl)c(F)c1C1CN(C(C)C)C1` (centres unmarked) [Example 13, 1-{1-[5-Chloro-4-fluoro-3-(1-isopropylazetidin-3-yl)-2-methoxyphenyl]ethyl}-3-methyl-1H-pyrazolo[3,4-d]pyrimidin-4-amine bis(trifluoroacetate)], the IC50 was less than 10 nM.

The values are drawn from patent publication US9932341B2, “Use of pyrazolopyrimidine derivatives for the treatment of PI3K-delta related disorders” (Incyte Corporation, priority 2013, dated 2018).
